Experimental data from patent US9464044B2, “Compound having ability to inhibit 11Beta-HSD1 enzyme or pharmaceutically acceptable salt thereof, method for producing same, and pharmaceutical composition containing same as active ingredient” (AHN-GOOK PHARMACEUTICAL CO., LTD., priority 2012, dated 2016).
Where “and” joins values, the source holds several entries; their conditions need not be identical. Equal values may be shown once.

Amino acid sequences for entries named in this document (tags omitted). A change or cut given only in a name is not applied to a line headed by its entry.
UniProt P28845: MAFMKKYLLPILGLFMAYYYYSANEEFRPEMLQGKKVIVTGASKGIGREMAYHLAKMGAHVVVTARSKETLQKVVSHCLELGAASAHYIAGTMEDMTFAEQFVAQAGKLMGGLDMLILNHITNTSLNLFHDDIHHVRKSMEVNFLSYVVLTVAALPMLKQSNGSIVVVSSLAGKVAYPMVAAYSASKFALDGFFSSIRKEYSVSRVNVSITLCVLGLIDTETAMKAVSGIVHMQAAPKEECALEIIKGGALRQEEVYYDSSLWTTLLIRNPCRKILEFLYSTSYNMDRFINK

Biological target: 11β-HSD1 (Homo sapiens (Human), UniProt P28845)
Assay: 11β-HSD1 inhibiting activity, HTRF assay with human microsomal fractions
Assay type: biochemical
Conditions: 160 nM cortisone, 200 μM NADPH, 2 h at 37° C.
Protocol: The inhibiting activity of 11β-HSD1 derived from microsomal fractions was measured using the HTRF assay (62CO2PEB, Cisbio). […] Europium (Eu^3+) cryptate and XL665-conjugated cortisol were then added to each well and incubated for an additional 2 h at room temperature. The Cortisol concentration was calculated u sing a calibration curve. The IC50 values were calculated from dose response curves using GraphPad Prism software.

In order of falling IC50:
1. NC(=O)C12CC3CC(C1)C(NC(=O)C1(NC(=O)c4ccccc4F)CC1)C(C3)C2 (stereo not shown) [Example 63, E-4-[1-(2-fluorobenzamido)cyclopropanecarboxamido]-adamantan-1-carboxylic acid amide]  672 nM
2. NC(=O)C12CC3CC(C1)C(NC(=O)c1ccc(F)c(NS(=O)(=O)c4cccc(Cl)c4)c1)C(C3)C2 (stereo not shown) [Example 127, E-4-[3-(3-chlorobenzenesulfonylamino)-4-fluorobenzamido]adamantan-1-carboxylic acid amide]  78.3 nM
3. NC(=O)C12CC3CC(C1)C(NC(=O)C1(CNS(=O)(=O)c4cc(F)c(F)cc4F)CC1)C(C3)C2 (stereo not shown) [Example 36, E-4-[1-((2,4,5-trifluoro-benzenesulfonylamino)methyl)cyclopropanecarboxamido]-adamantan-1-carboxylic acid amide]  73 nM
4. NC(=O)C12CC3CC(C1)C(NC(=O)c1cc(NS(=O)(=O)c4cccc(Cl)c4)ccc1Cl)C(C3)C2 (stereo not shown) [Example 126, E-4-[2-chloro-5-(3-chloro-benzenesulfonylamino)benzamido]adamantan-1-carboxylic acid amide]  67.5 nM
5. NC(=O)C12CC3CC(C1)C(NC(=O)c1cc(NS(=O)(=O)c4cc(Cl)cc(Cl)c4)ccc1Cl)C(C3)C2 (stereo not shown) [Example 129, E-4-[2-chloro-5-(3,5-dichlorobenzenesulfonylamino)benzamido]adamantan-1-carboxylic acid amide]  41.8 nM
6. NC(=O)C12CC3CC(C1)C(NC(=O)C1(CNS(=O)(=O)c4cccs4)CC1)C(C3)C2 (stereo not shown) [Example 19, E-4-[1-((thiophen-2-sulfonylamino)methyl)cyclopropanecarboxamido]-adamantan-1-carboxylic acid amide]  17.8 nM
7. NC(=O)C12CC3CC(C1)C(NC(=O)C1(CNS(=O)(=O)c4ccc(Cl)cc4)CC1)C(C3)C2 (stereo not shown) [Example 37, E-4-[1-((4-chloro-benzenesulfonylamino)methyl)cyclopropanecarboxamido]-adamantan-1-carboxylic acid amide]  17.1 nM
8. CN(c1cccc(C(=O)NC2C3CC4CC2CC(C(N)=O)(C4)C3)c1)S(=O)(=O)c1cccc(Cl)c1 (stereo not shown) [Example 97, E-4-(3-[(3-chloro-benzenesulfonyl)-methylamino]-benzamido)-adamantan-1-carboxylic acid amide]  15.6 nM
9. COc1ccc(S(=O)(=O)Nc2ccc(Cl)c(C(=O)NC3C4CC5CC3CC(C(N)=O)(C5)C4)c2)cc1Cl (stereo not shown) [Example 133, E-4-[2-chloro-5-(3-chloro-4-methoxybenzenesulfonylamino)benzamido]adamantan-1-carboxylic acid amide]  14.8 nM
10. NC(=O)C12CC3CC(C1)C(NC(=O)c1cccc(NS(=O)(=O)c4cccc(Cl)c4)c1)C(C3)C2 (stereo not shown) [Example 95, E-4-[3-(3-chloro-benzenesulfonylamino)-benzamido]-adamantan-1-carboxylic acid amide]  13.1 nM
11. NC(=O)C12CC3CC(C1)C(NC(=O)C1(CNS(=O)(=O)c4c(F)cc(F)cc4F)CC1)C(C3)C2 (stereo not shown) [Example 12, E-4-[1-((2,4,6-trifluoro-benzenesulfonylamino)methyl)cyclopropanecarboxamido]-adamantan-1-carboxylic acid amide]  9.5 nM
12. NC(=O)C12CC3CC(C1)C(NC(=O)C1(NC(=O)c4ccc(F)c(F)c4)CC1)C(C3)C2 (stereo not shown) [Example 57, E-4-[1-(3,4-difluoro-benzeneamino)cyclopropanecarboxamido]-adamantan-1-carboxylic acid amide]  9.3 nM
13. CN(C1(C(=O)NC2C3CC4CC2CC(C(N)=O)(C4)C3)CC1)S(=O)(=O)c1ccccc1F (stereo not shown) [Example 61, E-4-[1-(2-fluoro-N-methylbenzenesulfonylamino)cyclopropanecarboxamido]-adamantan-1-carboxylic acid amide]  2.8 nM
14. NC(=O)C12CC3CC(C1)C(NC(=O)C1(CNS(=O)(=O)c4ccccc4)CC1)C(C3)C2 (stereo not shown) [Example 28, E-4-[1-((benzenesulfonylamino)methyl)cyclopropanecarboxamido]-adamantan-1-carboxylic acid amide]  1.2 nM
15. NC(=O)C12CC3CC(C1)C(NC(=O)c1cccc(NS(=O)(=O)c4cccs4)c1)C(C3)C2 (stereo not shown) [Example 102, E-4-[3-(thiophen-2-sulfonylamino)-benzamido]-adamantan-1-carboxylic acid amide]  1.1 nM

For `NC(=O)C12CC3CC(C1)C(NC(=O)c1cccc(NS(=O)(=O)c4cc(Cl)cc(Cl)c4)c1)C(C3)C2` (stereo not shown) [Example 119, E-4-[3-(3,5-dichloro-benzenesulfonylamino)benzamido]-adamantan-1-carboxylic acid amide], the IC50 was < 1 nM and 0.9 nM.
